# Source: PubChem BioAssay AID624167 (Sanford-Burnham Center for Chemical Genomics, 2012)
# Chains of the proteins cited; added tags and fusions are not shown.
# UniProt Q6IN02, whole entry, looked up: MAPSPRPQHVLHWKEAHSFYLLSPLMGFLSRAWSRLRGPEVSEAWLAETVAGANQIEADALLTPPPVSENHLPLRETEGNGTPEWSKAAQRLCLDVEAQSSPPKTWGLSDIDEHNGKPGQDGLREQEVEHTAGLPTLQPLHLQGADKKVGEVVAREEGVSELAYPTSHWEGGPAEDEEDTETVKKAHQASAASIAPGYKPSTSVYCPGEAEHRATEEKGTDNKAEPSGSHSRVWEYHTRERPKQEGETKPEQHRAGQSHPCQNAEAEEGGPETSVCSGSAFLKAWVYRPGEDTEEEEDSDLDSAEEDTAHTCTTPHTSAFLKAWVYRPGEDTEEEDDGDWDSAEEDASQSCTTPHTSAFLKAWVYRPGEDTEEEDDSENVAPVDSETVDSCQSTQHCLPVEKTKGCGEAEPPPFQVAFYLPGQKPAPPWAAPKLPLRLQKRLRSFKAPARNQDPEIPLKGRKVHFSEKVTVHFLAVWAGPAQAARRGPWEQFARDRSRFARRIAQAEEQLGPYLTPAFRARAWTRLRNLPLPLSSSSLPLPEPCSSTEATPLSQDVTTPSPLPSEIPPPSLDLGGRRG
# The list shows a part of the results, in another mix than the full data.
# Biological target: PEG-3 (UniProt Q6IN02)
# Assay: inhibition of PEG-3 promoter-driven reporter – cell-based, HeLa, luciferase, CREF/GAPDH counter-screen panel, dose response (AID 624167)
# Settings: HeLa PEG-Prom luciferase reporter, overnight, CREF/GAPDH counter-screens; run 1, dose range 1, at 100 µM (top of the series)
row,SMILES,inhibition
1,CCCCn1nnnc1C(c1cccs1)N1CCC(n2c(=O)[nH]c3ccccc32)CC1 (configuration not stated),102%
2,O=c1[nH]c2ccccc2n1C1CCN(C(c2cccc3ccccc23)c2nnnn2C2CCCC2)CC1 (configuration not stated),34.9%
